# Binding of CDR-mutated scFvs to a peptide of the spike HR2 region

Binding partner: SARS-CoV-2 spike HR2 peptide, sequence PDVDLGDISGINAS.

Parent scFv Ab-14: VH joined to VL by the linker GGGGSGGGGSGGGGS. Changes lie in the light chain CDRs alone.
VH: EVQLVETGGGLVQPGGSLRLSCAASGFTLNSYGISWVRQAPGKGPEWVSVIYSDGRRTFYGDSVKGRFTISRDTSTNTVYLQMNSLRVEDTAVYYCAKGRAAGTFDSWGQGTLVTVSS
VL: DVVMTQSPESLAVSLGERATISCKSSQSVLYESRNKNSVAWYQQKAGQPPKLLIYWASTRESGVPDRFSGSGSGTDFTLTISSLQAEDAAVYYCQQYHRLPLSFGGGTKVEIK

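Phage display of a naive human antibody library on the peptide gave the parent. Designed CDR sequences, proposed from the first random library and measured here. Group labels follow the data file (Ctrl: baseline library sampled from a position-specific scoring matrix, with some repeated check sequences; En: ensemble of fine-tuned language models; GP: Gaussian process model; HC: hill climbing; Gen: genetic algorithm; Gibbs: Gibbs sampling; a sequence that several methods proposed may carry one label only). Affinity was read by AlphaSeq, a pooled yeast mating assay with surface-displayed partners. Binding brings cells together so that they mate, and sequencing counts the barcode pairs among the diploids. Read counts were normalised to the haploid input and turned into Kd by a linear fit to BCL2-family pairs of known affinity, for each replicate. Each pool was mated in six replicate cultures.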

Each variant is given by its three light chain CDRs, as the data file delimits them; those of the parent are KSSQSVLYESRNKNSVA, WASTRES, QQYHRLPLS.
Variants here have more than six changes.
The read-out is the apparent dissociation constant on a log10 scale (nM): the lower, the stronger.
"nd" marks a missing value. The strain was present, yet no cells mated with the target were sequenced in that replicate, which points to weak or no binding.

* KSQQQYCYGDRNKNSVA, NASQRED, QQYHRLPLS [GP_Gibbs]: 0.17, 0.18, -0.07, -0.05, 0.07, 0.19 (controls 0 of 18)
* KISMYLNKESKAGNNVA, EMVNRES, QQYDRLPLS [En_HC]: 0.81, 0.47, 0.49, 0.67, 0.68, 0.61 (controls 0 of 18)
* KLSPIYFDSYGNRQAVA, ENEATSN, QQYSLLPLS [En_Gibbs]: nd, nd, nd, nd, 1.73, nd (controls 0 of 18)
* KLREVQHVEMKQKNNVA, DNSTRES, QDYYRLPLS [En_HC]: 0.59, 0.65, 0.28, 0.56, 0.71, 0.62 (controls 2 of 18)
* KLTSITGTEKVLGNNVA, EMETREN, QQYNRLPLS [En_Gen]: 0.52, 0.04, 0.08, -0.04, 0.18, 0.22 (controls 3 of 18)
* IVSQLMLWGMHLKNSIA, EAQTRLN, QQYERLPLF [En_Gen]: nd, nd, nd, nd, nd, nd (controls 0 of 18)
* KVRQSVLYESRNKNSVA, DAFTRAS, QQYRELPLS [Ctrl]: 0.17, 0.02, -0.12, -0.10, 0.06, 0.06 (controls 1 of 18)
* KLFDRTMEGIANQRAVA, EDNDVSV, QQYSILPLT [En_Gibbs]: nd, nd, nd, nd, nd, nd (controls 0 of 18)
* KLGQSVAMTSRMTNNVA, DLNERER, QQYHRLPLS [En_HC]: 0.23, 0.01, 0.06, -0.22, -0.02, 0.03 (controls 0 of 18)
* MISDLTMYGSRNKNSVA, DLSQRGS, QQYHRLPLS [En_HC]: 0.22, 0.13, -0.19, -0.02, -0.05, 0.16 (controls 2 of 18)
* KIAATALYESGNANSVA, QNSTRES, QQYHRLPLS [En_HC]: 1.40, 1.54, 1.36, 1.31, 2.20, 1.89 (controls 1 of 18)
* LGNYEDQDDDRGMNNIA, NGDTKMQ, QQYYRLPLS [En_Gibbs]: 0.11, -0.05, -0.19, 0.18, -0.24, 0.31 (controls 1 of 18)
* HITYGMQVAGRHSKSIA, QAEERAK, QQYDRLPLA [En_Gen]: 0.24, 0.31, 0.37, 0.40, -0.14, 0.04 (controls 1 of 18)
* MISHVMNTLTRNGNNVA, DLEEREN, QQYFRLPLS [En_Gen]: nd, nd, nd, nd, nd, nd (controls 0 of 18)
* KLRMMTLTGGYFRNSVA, QASTREN, QSYHRLPLS [En_HC]: 1.19, 1.63, 1.05, 2.14, 0.71, 1.36 (controls 4 of 18)
* TLGDVTRMESNKVNSIA, DMSNRAD, QQYHRLPLS [En_HC]: 0.72, 0.63, 0.36, 0.28, 0.36, 0.63 (controls 0 of 18)
* AFTNSIFYGQRDDNSIA, HADELVK, QQYDRFPLA [En_Gibbs]: nd, nd, nd, nd, nd, nd (controls 1 of 18)
* KQSQSQGGMQRNKNSVA, EASTREM, QQYHRLPLS [GP_Gibbs]: 0.28, 0.30, 0.03, -0.08, -0.01, 0.19 (controls 2 of 18)
* KLSPSVMYWMRNKNSVA, NASTRMS, QQYHRLPLS [GP_Gibbs]: 0.00, -0.10, -0.05, -0.34, -0.18, 0.03 (controls 2 of 18)
* KIGMTLNTLLHQKNNVA, DLVTREN, QQYFRLPLS [En_Gen]: 0.61, 0.70, 0.53, 0.57, 0.49, 0.79 (controls 0 of 18)
* ILSQMMLTAGNKHSSVA, QANNRTD, QQYHRLPLS [En_HC]: 1.04, 1.34, 1.21, 1.45, 2.13, 1.30 (controls 1 of 18)
* NLKENNVDNQTFYSNIA, EADQREK, QQYYRLPLQ [En_Gibbs]: 3.89, 2.64, 2.26, 1.99, 2.35, 2.01 (controls 0 of 18)
* MISDLTMYGSHNVNSVA, DLSTRGS, QQYHRLPLS [En_HC]: 0.56, 0.45, 0.27, 0.53, 0.74, 0.60 (controls 1 of 18)
* KLGATYEGEKRQRNSVA, HNSMREN, QQYDRLPLE [En_Gen]: 1.94, 1.54, 2.25, 2.00, 1.70, 1.74 (controls 0 of 18)
* KLSMLTEMEHVNRNSVA, ELVTRMS, QQYNRLPLS [En_Gen]: 0.96, 0.76, 0.84, 1.03, 1.27, 2.38 (controls 0 of 18)
* HFAKQLGSLYNSKQNVA, NASTVMV, QHYNRLPLS [En_Gibbs]: 0.94, 0.72, 1.11, 0.95, 0.78, 1.17 (controls 1 of 18)
* HMSMLTMMGMRQRNSVA, QMTMREN, QQYDRLPLM [En_Gen]: 1.18, 2.04, 1.95, 1.30, 1.10, 1.31 (controls 1 of 18)
* TLTQVQGMLSHNKNSVA, DLSTRGS, QQYHRLPLS [En_HC]: 0.42, 0.21, 0.27, -0.01, 0.26, 0.23 (controls 3 of 18)
* KISMVAGHMSMSRNNVA, EMVTREN, QQYDRLPLS [En_Gen]: 0.57, 0.29, 0.18, 0.36, 0.26, 0.46 (controls 1 of 18)
* QFDMFEPYQGEQNASIA, GTTNRLT, QQYQKLPLS [En_Gibbs]: 1.62, 1.03, 0.22, 1.64, 0.26, 1.16 (controls 0 of 18)
* SLIPFENQIMKGLNNIA, NTSVRAS, QQYMRLPFV [En_Gibbs]: 0.65, 0.25, 0.07, -0.07, 0.25, 0.33 (controls 2 of 18)
* KLYQATAMTSHMRNNVA, DLNERER, QQYFRLPLS [En_HC]: 0.96, 0.52, 0.49, 0.20, 0.69, 0.99 (controls 1 of 18)
* HLSKPWQLGHPSTNAVA, NMDVLMT, QQYSRLPLS [En_Gibbs]: 0.64, 1.00, 0.97, 1.06, 0.89, 0.73 (controls 1 of 18)
* KFGQMVLTGAYVSNSVA, QMSTRAN, QQYHRLPLM [En_HC]: 1.02, 0.40, 0.32, 0.44, 0.55, 0.76 (controls 0 of 18)
* KIHCRELWYQGQWQNIA, EAAKLVE, QQYALLPLA [En_Gibbs]: nd, nd, 3.74, 1.92, 2.33, 1.86 (controls 1 of 18)
* KLQNLMGTMGKQNQAIA, QGAITRV, QQYQHLPLW [En_Gibbs]: nd, nd, nd, nd, nd, nd (controls 1 of 18)
* KLSQTVNFFGHAINSVA, EMETREN, QQYDRLPLS [En_HC]: 0.38, 0.44, 0.39, 0.97, 1.15, 0.72 (controls 0 of 18)
* HISQMMMYGSCNKNNVA, QVSLRGE, QQYHRLPLS [En_HC]: 0.52, 0.26, 0.37, 0.31, 0.59, 0.42 (controls 1 of 18)
* KIGMVLNTLSHKQNNVA, DLVTREN, QQYYRLPLS [En_Gen]: 1.39, 2.03, 1.28, 2.49, 0.87, 1.67 (controls 0 of 18)
* KLSMLVLMESRNHNSVA, SANTRES, QQYHRLPLS [GP_Gibbs]: 0.11, 0.07, -0.05, 0.25, 0.31, 0.15 (controls 0 of 18)
* KLTEAMASWRGARHNIA, DRTVTAP, QQYSRLPIT [En_Gibbs]: -0.15, 0.05, 0.13, 0.06, 0.32, 0.35 (controls 0 of 18)
* KLQQAVLYESRNKNSVA, QASTRSD, QCYHRLPLS [GP_Gibbs]: 0.24, 0.54, 0.53, 0.58, 0.32, 0.56 (controls 2 of 18)
* HISIKLPGNWYMGDSVA, HSERRAE, QQYARLPLG [En_Gibbs]: 1.02, 0.57, 0.81, 0.73, 0.57, 0.86 (controls 2 of 18)
* MISQLINMGQFAINSVA, QASIRCN, QQYDRLPLM [En_Gen]: nd, nd, nd, nd, nd, nd (controls 0 of 18)
* KITQIFSPYGNSWHSVA, NANTLAH, QQYYMLPLM [En_Gibbs]: 1.13, 1.04, 1.01, 0.86, 0.98, 1.01 (controls 3 of 18)
* KLSMKTYGPTEIDSNVA, NDEMRWQ, QQYDKLPLI [En_Gibbs]: 1.60, 1.26, 1.10, nd, nd, nd (controls 0 of 18)
* HVTLQLRPGHETQNPIA, EASHRAA, QQYAHLPLG [En_Gibbs]: 0.25, 0.60, 0.78, 0.62, 0.15, 0.59 (controls 0 of 18)

Again, the first 6 entries without any signal:

CDR-L1,CDR-L2,CDR-L3,group,log10 Kd (nM) by replicate,empty controls
IVSQLMLWGMHLKNSIA,EAQTRLN,QQYERLPLF,En_Gen,"nd, nd, nd, nd, nd, nd",0/18
KLFDRTMEGIANQRAVA,EDNDVSV,QQYSILPLT,En_Gibbs,"nd, nd, nd, nd, nd, nd",0/18
MISHVMNTLTRNGNNVA,DLEEREN,QQYFRLPLS,En_Gen,"nd, nd, nd, nd, nd, nd",0/18
AFTNSIFYGQRDDNSIA,HADELVK,QQYDRFPLA,En_Gibbs,"nd, nd, nd, nd, nd, nd",1/18
KLQNLMGTMGKQNQAIA,QGAITRV,QQYQHLPLW,En_Gibbs,"nd, nd, nd, nd, nd, nd",1/18
MISQLINMGQFAINSVA,QASIRCN,QQYDRLPLM,En_Gen,"nd, nd, nd, nd, nd, nd",0/18

The authors' rule: three or more of the six replicates give a measured affinity, fewer mean a poor binder.
A sequence measured in both rounds can read differently, since the two assays cover different ranges.
Three control strains display no target. For all light chain designs, 4% of the pairings with them gave a signal, with a median of 2.64 and one signal in twenty below 1.59, so weak values seen in few replicates may be background. The control count says in how many pairings with the empty strains this scFv gave a signal.

Reference: Li et al. 2023, doi:10.1038/s41467-023-39022-2. File: FLAb, binding data.